Assay results reported in patent US5292868A, “Chelating agents for attaching metal ions to proteins” (Akzo N.V., priority 1993, dated 1994).

Assay: Stability of In-111 labeled HSA-chelate conjugates by DTPA chase technique in PBS at 37° C.
Format: physicochemical
Conditions: HSA-IDAC and HSA-DTPA, 0.05M PBS pH 7.2, DTPA chase
Experimental: Under similar experimental conditions, HSA-DTPA-^111 In loses ^111 In at the rate of 10% per day. […] However, IDAC can be used for short lived isotopes such as ^99m Tc and ^55 Co (half-life approximately 6h.), since in these cases short term stability is more important.
For stability studies, HSA-IDAC or HSA-LiLo conjugate was first prepared by reacting HSA (30 mg/ml, 0.05M PBS solution, pH7.2) with LiLo or IDAC (HSA: LiLo/IDAC molar ratio 1:10) at 37° C. for 2 hours. Unbound chelate was removed by gel filtration chromatography (G-50 Sephadex, Pharmacia). The conjugate (HSA-LiLo, HSA-IDAC) was collected and the concentration of the protein determined by absorption at 280 nm. […]
The conjugate was labeled with In-111 in a buffer (0.05M citrate/0.5 M acetate, pH 5.5) DTPA was added to bind any unbound Indium-111, and the labelled conjugate was purified by G-50 or G-25 gel filtration chromatography. The purity of the immunoconjugate was determined by ITLC in PBS buffer using Gelman ITLC-SG chromatography paper.
Stability studies were carried out in 0.05M PBS buffer pH 7.2 at 37° C. […] Thin layer chromatography analysis using ITLC-SG strip (Gelman Sciences) in PBS buffer (0.05M, pH 7.2) was carried out, and the ITLC strip was cut into two pieces, and the indium (111) activity was determined using a gamma counter. […]

Substance	rate of loss of 111In from HSA conjugate
HSA-DTPA-^111 In: human serum albumin reacted with DTPA dianhydride, labeled with Indium-111 [reference compound]	10 % per day
HSA-IDAC-^111 In: human serum albumin conjugated with IDAC, labeled with Indium-111	approximately 20 % per day
